Test results as given in US20230048200A1.

Target: type I collagen (Advanced BioMatrix) coated on plates and pretreated with collagenase
Test: cell-based or functional assay

## Compound 3, a (Pro-Pro-Gly)7 CMP (peptide)
  collagen parallel alignment (digital analysis of DIC micrographs): 3 fold
